This note sets out measurements from patent US20240190851A1, “FURAN FUSED RING-SUBSTITUTED GLUTARIMIDE COMPOUND” (MEDSHINE DISCOVERY INC., priority 2021, published 2024).

For this experiment, the system named is human prostate cancer LNCaP cells. Description: Antiproliferative effect in LNCaP cells (CellTiter-Glo, 6 days). The conditions noted are these: read-out: LNCaP IC50. How it is done:
In this experiment, the inhibitory effect of the test compound on cell proliferation in human prostate cancer LNCaP cells was detected.
The tumor cell lines were cultured in a 37° C., 5% CO2 incubator under the above culture conditions. Regular passage, and cells in logarithmic growth phase were taken for plating.
2. Cell Plating • (1) Cells were stained with trypan blue and viable cells were counted; • (2) the cell concentration was adjusted to an appropriate concentration;
• (3) 90 μL of cell suspension per well was added to the culture plate as shown in the table above, and cell-free culture medium was added to the blank control well; • (4) the culture plate was cultured overnight in a 37° C., 5% CO2 incubator with 100% relative humidity.
Preparation of stock solution storage plate with 400 times the initial concentration of the compound: The compound was serially diluted with DMSO from the highest concentration to the lowest concentration. The solution was prepared as needed each time.
Preparation of Working Solution with 10 Times the Initial Concentration of Compounds and Cell Treatment with Compounds • (1) To a V-bottom 96-well plate was added 78 μL of cell culture medium, and 2 μL of compound was pipetted from a stock solution storage plate with 400 times the initial concentration of the compound and added to the cell culture medium of the 96-well plate. […]

What is called pIC50 is the negative decadic logarithm of the IC50, by convention in mol/L.

pIC50: −log10 of the molar value.

`N#Cc1ccc(O[C@H]2CC[C@H](NC(=O)c3ccc(N4CCC(CN5CCN(c6cccc7c6ccc6occ(C8CCC(=O)NC8=O)c67)CC5)CC4)nn3)CC2)cc1Cl` (single isomer, unassigned) [WX016]: the pIC50 is 7.51.

As for `N#Cc1ccc(O[C@H]2CC[C@H](NC(=O)c3ccc(N4CCC(CN5CCN(c6cccc7c6ccc6occ(C8CCC(=O)NC8=O)c67)CC5)CC4)nn3)CC2)cc1Cl` (single isomer, unassigned) [WX017], the pIC50 is 7.36.
